Legend:
Assay in all cases: biochemical
hPDE9A = hPDE9A (Homo sapiens, UniProt O76083)
Method: (§1) The PDE1 enzyme is reconstituted with 50% glycerol to 2.5 U/ml. […] The compounds are mixed and pre-incubated with the enzyme for 10 min at room temperature.
(§2) The reaction is incubated in dark at room temperature for 15 min.

Sequences of proteins named here, by UniProt entry; tags and fusion partners are left off. A change or cut given only in a name is not applied to a line headed by its entry.
UniProt O76083: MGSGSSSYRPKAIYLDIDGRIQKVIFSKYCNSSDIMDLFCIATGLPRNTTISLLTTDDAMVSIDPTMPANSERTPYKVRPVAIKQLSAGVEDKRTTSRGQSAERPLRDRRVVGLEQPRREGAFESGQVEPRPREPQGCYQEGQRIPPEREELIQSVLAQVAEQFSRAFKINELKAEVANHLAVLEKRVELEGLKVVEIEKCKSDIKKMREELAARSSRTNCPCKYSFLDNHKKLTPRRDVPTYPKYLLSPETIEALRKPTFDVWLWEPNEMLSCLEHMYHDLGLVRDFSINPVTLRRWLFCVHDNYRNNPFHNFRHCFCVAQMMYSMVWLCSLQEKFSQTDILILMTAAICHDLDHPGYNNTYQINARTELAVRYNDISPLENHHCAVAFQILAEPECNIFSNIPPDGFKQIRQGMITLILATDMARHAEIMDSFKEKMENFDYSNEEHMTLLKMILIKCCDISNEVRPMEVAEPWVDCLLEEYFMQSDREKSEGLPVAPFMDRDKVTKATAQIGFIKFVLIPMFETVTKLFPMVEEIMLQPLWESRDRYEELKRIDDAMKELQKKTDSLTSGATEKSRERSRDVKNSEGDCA
UniProt Q9Y233: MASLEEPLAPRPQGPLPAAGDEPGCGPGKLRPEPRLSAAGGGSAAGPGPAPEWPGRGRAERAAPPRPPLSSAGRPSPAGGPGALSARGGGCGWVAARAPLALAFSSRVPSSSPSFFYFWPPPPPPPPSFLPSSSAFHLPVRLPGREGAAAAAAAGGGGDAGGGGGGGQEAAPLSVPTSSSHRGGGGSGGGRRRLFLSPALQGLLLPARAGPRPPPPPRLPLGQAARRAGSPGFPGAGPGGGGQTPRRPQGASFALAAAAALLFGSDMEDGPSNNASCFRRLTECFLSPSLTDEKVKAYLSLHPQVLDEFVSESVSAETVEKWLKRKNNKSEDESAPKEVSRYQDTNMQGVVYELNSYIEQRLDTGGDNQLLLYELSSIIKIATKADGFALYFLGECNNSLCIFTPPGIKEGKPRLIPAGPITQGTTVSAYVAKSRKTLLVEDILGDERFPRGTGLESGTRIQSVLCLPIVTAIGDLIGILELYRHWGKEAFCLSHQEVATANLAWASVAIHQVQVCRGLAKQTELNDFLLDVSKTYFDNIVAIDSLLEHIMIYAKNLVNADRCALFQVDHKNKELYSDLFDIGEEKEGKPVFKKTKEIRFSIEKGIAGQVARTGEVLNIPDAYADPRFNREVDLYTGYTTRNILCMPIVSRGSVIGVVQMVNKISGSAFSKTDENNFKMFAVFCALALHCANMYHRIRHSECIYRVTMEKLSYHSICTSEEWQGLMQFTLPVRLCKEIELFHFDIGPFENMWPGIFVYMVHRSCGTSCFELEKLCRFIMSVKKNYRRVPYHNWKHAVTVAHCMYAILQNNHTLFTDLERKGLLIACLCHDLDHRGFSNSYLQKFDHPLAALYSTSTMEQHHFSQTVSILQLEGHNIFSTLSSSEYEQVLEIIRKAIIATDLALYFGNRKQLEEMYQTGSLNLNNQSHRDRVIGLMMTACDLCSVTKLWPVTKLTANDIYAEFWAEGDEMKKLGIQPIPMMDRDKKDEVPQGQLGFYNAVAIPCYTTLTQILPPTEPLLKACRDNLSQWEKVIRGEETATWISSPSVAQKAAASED
UniProt Q13370: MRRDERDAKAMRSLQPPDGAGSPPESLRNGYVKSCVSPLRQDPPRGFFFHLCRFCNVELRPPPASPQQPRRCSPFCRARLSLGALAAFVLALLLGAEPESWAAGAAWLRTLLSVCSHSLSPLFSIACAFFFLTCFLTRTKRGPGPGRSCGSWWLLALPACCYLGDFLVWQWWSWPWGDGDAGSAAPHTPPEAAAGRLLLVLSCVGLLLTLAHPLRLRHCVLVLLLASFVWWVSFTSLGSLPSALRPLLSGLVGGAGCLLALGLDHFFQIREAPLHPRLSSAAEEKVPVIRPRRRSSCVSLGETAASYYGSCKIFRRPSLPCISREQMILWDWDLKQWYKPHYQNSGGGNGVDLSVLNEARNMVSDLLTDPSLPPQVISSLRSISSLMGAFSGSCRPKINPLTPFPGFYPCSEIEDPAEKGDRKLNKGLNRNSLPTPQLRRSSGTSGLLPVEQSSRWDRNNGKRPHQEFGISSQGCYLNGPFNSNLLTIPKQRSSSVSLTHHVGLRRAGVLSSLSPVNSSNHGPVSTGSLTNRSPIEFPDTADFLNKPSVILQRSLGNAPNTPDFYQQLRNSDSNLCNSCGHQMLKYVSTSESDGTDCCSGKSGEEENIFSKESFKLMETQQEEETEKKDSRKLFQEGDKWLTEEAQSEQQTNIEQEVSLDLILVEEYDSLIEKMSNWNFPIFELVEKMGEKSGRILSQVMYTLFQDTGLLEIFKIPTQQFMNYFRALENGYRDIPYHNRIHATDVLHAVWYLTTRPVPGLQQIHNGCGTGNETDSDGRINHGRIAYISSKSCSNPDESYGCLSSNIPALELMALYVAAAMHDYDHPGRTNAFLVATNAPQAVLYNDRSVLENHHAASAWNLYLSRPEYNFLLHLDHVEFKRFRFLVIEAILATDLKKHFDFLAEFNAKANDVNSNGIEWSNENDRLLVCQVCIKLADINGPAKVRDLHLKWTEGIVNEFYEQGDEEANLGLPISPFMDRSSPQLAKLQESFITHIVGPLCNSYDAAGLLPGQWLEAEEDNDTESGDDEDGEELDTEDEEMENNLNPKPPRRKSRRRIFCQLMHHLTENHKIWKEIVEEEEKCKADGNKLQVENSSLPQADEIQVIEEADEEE
UniProt O00408, whole entry: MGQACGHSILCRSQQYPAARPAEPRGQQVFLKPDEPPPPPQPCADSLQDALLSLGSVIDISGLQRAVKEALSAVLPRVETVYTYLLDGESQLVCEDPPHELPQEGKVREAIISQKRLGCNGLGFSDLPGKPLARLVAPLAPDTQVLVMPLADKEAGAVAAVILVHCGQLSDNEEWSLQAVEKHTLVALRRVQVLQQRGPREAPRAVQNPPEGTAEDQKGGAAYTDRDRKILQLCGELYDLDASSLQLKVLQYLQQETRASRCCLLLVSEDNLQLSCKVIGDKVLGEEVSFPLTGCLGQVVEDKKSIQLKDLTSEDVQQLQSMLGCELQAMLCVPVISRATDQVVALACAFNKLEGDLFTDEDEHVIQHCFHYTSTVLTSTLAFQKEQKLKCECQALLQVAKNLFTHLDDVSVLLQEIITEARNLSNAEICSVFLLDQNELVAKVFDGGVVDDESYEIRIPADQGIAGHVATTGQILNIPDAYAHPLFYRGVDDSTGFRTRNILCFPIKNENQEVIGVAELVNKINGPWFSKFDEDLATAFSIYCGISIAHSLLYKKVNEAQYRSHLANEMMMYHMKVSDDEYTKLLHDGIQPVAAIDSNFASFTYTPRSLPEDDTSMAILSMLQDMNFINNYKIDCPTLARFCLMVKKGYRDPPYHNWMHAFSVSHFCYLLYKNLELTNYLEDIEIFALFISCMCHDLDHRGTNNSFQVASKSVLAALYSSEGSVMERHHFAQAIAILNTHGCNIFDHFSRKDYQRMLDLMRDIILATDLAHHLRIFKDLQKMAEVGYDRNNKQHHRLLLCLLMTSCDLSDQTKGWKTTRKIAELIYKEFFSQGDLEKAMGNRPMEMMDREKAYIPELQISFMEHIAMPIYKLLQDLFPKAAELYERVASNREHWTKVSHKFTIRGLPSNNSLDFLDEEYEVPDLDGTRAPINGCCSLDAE
UniProt Q9NP56: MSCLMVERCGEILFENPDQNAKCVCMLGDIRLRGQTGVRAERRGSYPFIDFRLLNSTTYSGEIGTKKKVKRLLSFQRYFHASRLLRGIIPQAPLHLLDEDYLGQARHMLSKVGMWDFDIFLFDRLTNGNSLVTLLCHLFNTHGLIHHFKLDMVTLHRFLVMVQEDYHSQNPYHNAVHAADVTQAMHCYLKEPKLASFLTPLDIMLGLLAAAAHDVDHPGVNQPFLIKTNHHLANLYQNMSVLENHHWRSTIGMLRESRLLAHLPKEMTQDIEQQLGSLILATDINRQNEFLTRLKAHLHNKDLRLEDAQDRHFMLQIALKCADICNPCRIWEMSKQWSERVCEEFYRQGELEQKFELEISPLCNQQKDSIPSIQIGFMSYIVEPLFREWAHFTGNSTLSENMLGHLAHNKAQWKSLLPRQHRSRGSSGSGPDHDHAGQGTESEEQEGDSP

hPDE10A = hPDE10A (Homo sapiens, UniProt Q9Y233)
Method: as §1, §2

hPDE3B = hPDE3B (Homo sapiens, UniProt Q13370)
Method: as §1, §2

hPDE2A = hPDE2A (Homo sapiens, UniProt O00408)
Method: as §1, §2

hPDE7B = hPDE7B (Homo sapiens, UniProt Q9NP56)
Method: as §1, §2

r-bovine PDE5A = r-bovine PDE5A (Bos taurus, UniProt Q28156)
Method: as §1, §2

IC50 (hPDE9A): 16600 nM
IC50 (hPDE10A): 1820 nM
IC50 (hPDE3B): 3120 nM
IC50 (hPDE2A): 3660 nM
IC50 (hPDE7B): 355 nM
IC50 (r-bovine PDE5A): 632 nM
SMILES: CN1C(=O)c2c(nn(Cc3ccc(-c4cccc(F)n4)cc3)c2Nc2ccccc2)N2C1=N[C@@H]1CCC[C@@H]12 [Compound 214]
